Measured values taken from article PMC5864910, “Mutacin 1140 Lantibiotic Variants Are Efficacious Against Clostridium difficile Infection” (Frontiers in Microbiology, 2018).

Amino acid sequences for entries named in this document (tags omitted). A change or cut given only in a name is not applied to a line headed by its entry. Residues count along the entry.
UniProt P41143, whole entry: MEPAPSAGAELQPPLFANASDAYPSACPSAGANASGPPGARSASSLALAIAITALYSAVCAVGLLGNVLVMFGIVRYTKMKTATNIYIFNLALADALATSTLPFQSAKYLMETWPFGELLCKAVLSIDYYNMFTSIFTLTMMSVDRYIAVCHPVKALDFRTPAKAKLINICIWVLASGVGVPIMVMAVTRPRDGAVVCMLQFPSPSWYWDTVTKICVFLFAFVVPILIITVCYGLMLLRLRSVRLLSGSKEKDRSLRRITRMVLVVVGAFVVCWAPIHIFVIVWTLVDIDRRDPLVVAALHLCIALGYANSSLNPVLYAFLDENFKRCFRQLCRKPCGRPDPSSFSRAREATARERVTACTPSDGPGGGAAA
UniProt Q14432: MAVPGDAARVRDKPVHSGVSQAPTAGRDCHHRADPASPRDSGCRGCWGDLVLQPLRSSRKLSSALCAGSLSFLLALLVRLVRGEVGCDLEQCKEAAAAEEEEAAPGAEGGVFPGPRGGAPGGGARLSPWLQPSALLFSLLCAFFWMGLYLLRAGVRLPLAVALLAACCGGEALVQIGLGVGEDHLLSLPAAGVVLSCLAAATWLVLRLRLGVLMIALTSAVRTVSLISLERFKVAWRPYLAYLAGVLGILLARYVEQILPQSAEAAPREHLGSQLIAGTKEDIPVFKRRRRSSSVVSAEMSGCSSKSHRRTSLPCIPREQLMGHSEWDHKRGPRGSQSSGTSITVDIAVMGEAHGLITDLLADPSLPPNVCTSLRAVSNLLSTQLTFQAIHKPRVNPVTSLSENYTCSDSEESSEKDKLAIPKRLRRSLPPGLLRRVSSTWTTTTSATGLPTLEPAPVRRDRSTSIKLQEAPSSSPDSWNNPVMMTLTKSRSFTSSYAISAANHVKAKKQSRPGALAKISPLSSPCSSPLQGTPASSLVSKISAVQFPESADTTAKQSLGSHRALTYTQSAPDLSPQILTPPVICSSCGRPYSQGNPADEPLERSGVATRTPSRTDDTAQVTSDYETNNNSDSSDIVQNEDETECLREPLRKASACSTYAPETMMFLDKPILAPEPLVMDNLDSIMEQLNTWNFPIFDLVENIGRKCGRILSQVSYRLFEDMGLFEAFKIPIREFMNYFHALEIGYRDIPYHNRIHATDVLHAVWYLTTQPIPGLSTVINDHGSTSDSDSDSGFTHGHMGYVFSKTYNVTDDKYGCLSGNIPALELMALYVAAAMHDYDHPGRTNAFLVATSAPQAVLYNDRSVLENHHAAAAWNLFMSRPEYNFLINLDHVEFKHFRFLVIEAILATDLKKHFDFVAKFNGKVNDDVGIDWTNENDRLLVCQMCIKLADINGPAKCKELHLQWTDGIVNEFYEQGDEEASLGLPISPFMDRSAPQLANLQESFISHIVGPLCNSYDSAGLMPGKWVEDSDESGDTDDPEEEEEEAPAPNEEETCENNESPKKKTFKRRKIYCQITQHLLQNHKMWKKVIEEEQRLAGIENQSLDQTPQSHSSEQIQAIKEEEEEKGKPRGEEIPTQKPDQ
UniProt P28564, whole entry: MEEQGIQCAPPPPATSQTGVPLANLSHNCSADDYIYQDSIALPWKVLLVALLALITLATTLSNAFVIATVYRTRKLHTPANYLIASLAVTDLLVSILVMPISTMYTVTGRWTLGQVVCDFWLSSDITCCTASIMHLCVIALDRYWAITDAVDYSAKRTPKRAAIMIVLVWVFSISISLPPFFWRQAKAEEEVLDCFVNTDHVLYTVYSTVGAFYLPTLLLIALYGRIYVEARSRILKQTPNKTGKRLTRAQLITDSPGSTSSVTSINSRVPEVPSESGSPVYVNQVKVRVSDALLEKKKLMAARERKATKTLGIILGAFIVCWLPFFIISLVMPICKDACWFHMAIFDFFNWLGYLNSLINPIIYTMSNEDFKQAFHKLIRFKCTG
UniProt P23975, whole entry: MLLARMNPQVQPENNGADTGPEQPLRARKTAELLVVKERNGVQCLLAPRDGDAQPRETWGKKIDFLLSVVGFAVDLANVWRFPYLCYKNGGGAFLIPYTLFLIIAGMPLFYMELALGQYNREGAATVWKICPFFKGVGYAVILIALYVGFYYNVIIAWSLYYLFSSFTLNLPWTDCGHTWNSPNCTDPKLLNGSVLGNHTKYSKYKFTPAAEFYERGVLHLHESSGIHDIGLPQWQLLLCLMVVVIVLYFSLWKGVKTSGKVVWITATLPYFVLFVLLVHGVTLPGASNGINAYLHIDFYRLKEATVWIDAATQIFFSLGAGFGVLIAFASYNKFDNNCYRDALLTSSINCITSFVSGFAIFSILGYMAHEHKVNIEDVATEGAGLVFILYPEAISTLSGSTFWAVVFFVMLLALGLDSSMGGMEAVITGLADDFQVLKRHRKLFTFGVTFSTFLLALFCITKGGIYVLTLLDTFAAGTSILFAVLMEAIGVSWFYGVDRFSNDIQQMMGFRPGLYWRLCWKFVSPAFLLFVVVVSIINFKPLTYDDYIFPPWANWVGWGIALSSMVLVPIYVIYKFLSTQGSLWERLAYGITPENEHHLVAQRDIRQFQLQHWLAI
UniProt P31645, whole entry: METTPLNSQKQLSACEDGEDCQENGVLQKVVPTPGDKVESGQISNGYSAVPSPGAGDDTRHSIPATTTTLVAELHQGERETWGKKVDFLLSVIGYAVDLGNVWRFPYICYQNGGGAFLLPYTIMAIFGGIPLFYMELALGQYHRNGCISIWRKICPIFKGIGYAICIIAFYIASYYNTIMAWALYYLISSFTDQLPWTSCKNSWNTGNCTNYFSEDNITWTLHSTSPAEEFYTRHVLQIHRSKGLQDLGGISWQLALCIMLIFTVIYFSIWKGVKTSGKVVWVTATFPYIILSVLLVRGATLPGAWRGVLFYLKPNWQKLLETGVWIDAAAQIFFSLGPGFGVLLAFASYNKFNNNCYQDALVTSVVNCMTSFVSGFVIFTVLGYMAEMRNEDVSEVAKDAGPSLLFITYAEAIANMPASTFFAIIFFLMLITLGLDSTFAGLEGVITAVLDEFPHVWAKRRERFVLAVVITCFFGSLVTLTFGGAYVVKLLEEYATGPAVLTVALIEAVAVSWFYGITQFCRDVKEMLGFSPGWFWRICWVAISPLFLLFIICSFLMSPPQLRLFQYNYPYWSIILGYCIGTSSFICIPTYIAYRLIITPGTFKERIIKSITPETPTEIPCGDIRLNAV
UniProt Q01959, whole entry: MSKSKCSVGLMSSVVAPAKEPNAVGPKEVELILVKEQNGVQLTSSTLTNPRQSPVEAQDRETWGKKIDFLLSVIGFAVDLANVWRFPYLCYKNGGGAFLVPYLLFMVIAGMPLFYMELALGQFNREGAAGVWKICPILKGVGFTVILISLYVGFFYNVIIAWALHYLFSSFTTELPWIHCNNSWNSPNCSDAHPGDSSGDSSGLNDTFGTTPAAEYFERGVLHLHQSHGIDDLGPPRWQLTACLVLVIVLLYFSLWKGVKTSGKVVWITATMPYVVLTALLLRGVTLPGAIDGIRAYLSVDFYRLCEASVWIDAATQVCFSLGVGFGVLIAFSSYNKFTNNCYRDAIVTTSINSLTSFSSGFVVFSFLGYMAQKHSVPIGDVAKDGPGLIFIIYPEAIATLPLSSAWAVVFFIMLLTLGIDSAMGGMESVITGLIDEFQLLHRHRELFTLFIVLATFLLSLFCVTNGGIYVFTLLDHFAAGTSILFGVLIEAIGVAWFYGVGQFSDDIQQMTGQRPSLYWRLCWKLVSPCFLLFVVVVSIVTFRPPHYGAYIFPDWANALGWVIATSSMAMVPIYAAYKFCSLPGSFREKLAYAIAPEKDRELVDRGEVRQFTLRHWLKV
UniProt P06239: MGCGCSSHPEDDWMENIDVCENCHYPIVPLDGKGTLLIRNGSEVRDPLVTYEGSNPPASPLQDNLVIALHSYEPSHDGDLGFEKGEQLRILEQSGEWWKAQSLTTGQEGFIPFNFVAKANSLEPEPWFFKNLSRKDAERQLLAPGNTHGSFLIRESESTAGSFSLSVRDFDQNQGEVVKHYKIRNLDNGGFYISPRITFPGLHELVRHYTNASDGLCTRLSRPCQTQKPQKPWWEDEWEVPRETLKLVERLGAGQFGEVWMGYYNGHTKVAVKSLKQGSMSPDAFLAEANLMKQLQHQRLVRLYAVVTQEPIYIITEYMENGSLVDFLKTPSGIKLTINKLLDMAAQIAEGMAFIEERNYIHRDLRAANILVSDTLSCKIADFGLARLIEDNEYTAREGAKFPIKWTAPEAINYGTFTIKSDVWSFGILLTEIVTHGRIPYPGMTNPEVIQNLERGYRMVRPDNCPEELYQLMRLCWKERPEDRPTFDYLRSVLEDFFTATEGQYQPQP
UniProt Q12809: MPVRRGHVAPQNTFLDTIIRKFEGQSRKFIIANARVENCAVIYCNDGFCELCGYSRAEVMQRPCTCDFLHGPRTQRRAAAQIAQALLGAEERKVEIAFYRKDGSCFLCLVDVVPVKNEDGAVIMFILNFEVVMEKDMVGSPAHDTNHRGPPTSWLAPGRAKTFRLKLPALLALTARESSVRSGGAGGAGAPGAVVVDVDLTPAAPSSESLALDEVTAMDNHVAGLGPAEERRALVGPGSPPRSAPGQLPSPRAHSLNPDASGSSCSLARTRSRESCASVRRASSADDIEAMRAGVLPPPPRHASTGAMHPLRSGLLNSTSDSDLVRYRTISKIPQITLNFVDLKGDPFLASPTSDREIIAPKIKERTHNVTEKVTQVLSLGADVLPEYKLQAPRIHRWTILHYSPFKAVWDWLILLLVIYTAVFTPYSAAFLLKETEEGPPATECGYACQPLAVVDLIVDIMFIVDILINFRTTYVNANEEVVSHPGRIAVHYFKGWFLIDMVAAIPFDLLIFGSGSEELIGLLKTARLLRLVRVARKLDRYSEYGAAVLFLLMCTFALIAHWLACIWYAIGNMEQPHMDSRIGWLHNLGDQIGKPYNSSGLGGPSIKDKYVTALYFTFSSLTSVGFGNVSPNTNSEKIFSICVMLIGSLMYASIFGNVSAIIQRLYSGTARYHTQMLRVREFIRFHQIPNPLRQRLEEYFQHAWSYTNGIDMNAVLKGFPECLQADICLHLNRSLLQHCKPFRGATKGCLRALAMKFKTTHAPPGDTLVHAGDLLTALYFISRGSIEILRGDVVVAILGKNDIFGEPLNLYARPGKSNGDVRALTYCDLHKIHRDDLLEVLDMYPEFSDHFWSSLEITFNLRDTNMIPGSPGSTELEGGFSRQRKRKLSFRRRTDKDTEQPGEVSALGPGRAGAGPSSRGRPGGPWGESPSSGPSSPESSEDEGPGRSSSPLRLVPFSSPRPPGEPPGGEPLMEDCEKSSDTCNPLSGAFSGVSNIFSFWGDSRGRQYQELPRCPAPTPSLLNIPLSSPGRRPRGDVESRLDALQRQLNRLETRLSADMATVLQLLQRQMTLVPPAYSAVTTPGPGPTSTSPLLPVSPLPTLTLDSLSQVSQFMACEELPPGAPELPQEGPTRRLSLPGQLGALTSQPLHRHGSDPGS
UniProt P17787, 26-502: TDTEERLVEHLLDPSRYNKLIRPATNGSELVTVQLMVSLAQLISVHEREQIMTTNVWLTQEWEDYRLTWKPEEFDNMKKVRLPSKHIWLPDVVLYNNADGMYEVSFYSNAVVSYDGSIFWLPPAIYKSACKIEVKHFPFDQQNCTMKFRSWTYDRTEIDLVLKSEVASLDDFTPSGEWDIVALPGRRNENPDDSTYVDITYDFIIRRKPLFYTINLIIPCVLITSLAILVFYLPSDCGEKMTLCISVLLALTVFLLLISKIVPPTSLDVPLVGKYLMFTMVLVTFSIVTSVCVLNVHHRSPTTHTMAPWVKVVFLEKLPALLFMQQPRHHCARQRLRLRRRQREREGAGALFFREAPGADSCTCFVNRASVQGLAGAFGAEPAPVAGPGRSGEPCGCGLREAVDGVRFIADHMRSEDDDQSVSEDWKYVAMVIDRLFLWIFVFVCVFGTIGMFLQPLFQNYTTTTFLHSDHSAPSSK
UniProt P43681, 29-627 limits assumed: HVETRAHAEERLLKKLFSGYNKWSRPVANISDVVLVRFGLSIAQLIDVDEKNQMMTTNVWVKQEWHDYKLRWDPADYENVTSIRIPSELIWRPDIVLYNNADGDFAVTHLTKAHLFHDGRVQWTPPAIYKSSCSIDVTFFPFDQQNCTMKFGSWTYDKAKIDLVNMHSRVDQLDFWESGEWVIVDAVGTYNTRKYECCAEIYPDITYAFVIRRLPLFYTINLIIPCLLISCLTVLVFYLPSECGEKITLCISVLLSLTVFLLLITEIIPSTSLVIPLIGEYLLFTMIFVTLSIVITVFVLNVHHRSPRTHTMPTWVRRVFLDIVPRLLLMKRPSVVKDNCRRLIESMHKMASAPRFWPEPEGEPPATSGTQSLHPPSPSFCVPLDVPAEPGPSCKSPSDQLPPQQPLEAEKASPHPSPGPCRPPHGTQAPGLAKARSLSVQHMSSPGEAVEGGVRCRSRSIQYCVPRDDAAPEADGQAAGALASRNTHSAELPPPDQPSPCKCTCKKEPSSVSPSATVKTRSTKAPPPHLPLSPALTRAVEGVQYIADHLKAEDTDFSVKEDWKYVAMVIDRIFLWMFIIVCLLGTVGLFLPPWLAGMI

Experiments:
[1] = biological target: delta2 DOP (Homo sapiens, UniProt P41143)
[2] = biological target: PDE3A (Homo sapiens, UniProt Q14432)
[3] = biological target: T1, AR (Homo sapiens, UniProt P10275, T878A)
T1 sequence (P10275 1-920 T878A): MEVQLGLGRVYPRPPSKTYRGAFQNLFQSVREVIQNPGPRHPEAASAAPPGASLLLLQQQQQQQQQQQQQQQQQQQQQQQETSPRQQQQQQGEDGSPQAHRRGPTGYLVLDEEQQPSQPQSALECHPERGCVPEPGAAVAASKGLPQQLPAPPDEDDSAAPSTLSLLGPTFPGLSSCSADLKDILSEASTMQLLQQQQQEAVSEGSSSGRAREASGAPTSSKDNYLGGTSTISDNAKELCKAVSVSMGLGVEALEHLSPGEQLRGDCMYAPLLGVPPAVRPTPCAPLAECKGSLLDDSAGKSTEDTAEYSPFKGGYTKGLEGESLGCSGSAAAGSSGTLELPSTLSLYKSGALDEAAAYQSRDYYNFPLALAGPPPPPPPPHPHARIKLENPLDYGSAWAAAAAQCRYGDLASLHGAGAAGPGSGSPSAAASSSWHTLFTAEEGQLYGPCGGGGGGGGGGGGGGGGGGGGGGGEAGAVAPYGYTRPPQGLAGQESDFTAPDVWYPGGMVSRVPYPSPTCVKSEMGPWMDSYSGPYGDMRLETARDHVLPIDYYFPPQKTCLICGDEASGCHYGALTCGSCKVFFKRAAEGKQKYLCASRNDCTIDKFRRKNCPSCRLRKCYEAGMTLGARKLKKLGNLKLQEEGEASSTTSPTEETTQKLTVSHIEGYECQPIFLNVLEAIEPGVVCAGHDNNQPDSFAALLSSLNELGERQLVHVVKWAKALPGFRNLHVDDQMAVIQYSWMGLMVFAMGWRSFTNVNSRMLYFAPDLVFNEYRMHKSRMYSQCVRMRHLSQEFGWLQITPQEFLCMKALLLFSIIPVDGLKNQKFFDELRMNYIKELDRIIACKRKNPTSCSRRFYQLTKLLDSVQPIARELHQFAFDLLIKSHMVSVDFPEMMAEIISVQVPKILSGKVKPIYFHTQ

[4] = biological target: 5-HT (1B) (Rattus norvegicus, UniProt P28564)
[5] = biological target: T2, alpha1A (Homo sapiens, UniProt P35348)
T2 sequence (P35348 1-466): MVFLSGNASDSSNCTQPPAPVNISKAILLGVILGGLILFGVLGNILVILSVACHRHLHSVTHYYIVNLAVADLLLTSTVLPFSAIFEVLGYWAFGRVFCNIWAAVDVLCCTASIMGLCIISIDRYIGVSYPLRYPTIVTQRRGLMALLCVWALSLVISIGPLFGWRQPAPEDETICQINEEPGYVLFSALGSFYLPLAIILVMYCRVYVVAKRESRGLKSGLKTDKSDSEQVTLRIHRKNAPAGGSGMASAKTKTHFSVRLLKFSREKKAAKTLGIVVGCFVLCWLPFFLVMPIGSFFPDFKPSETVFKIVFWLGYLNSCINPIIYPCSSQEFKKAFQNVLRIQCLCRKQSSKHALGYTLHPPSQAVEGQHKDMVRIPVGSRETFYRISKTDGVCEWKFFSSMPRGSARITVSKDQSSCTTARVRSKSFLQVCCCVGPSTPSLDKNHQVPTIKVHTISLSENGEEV

[6] = biological target: NT (Homo sapiens, UniProt P23975)
[7] = biological target: 5-HT Transporter (Homo sapiens, UniProt P31645)
[8] = biological target: Dopamine (Homo sapiens, UniProt Q01959)
[9] = biological target: CB2 (Homo sapiens, UniProt P34972)
[10] = biological target: kinase (CTK) (Homo sapiens, UniProt P06239)
[11] = biological target: hERG (Homo sapiens, UniProt Q12809)
[12] = biological target: Beta2 (Homo sapiens, UniProt P07550)
[13] = biological target: cyclooxygenase Cox-1 (Homo sapiens, UniProt P23219)
[14] = biological target: T3, GR (Homo sapiens, UniProt P04150)
T3 sequence (P04150 1-777): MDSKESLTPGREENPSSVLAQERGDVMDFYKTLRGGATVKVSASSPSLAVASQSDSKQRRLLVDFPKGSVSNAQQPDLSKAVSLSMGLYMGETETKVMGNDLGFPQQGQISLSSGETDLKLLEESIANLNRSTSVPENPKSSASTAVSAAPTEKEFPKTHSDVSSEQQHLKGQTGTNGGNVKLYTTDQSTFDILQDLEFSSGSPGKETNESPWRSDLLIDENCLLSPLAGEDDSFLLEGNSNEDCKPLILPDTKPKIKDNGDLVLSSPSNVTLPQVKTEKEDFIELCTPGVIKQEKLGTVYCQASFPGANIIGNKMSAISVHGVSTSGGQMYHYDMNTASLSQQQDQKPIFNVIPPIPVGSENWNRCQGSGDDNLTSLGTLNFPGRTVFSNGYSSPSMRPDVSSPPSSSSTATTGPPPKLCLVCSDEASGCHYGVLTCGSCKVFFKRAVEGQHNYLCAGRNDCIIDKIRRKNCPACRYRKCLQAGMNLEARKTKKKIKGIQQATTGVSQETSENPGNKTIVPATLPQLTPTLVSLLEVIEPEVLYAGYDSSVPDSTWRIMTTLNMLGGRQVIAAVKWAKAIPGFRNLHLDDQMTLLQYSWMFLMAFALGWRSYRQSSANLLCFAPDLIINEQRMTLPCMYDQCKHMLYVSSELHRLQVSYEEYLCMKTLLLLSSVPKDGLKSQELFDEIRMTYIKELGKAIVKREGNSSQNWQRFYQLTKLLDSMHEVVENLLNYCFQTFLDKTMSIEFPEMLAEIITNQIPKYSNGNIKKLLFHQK

[15] = biological target: N- neuronal a4b2 (Homo sapiens, UniProt P17787+P43681)

Structure (SMILES) | Cerep SafetyScreen 44 % Inhibition delta2 (DOP) [1] | Cerep SafetyScreen 44 % Inhibition PDE3A [2] | Cerep SafetyScreen 44 % Inhibition AR [3] | Cerep SafetyScreen 44 % Inhibition 5-HT (1B) [4] | Cerep SafetyScreen 44 % Inhibition alpha1A [5] | Cerep SafetyScreen 44 % Inhibition NT [6] | Cerep SafetyScreen 44 % Inhibition 5-HT Transporter [7] | Cerep SafetyScreen 44 % Inhibition Dopamine [8] | Cerep SafetyScreen 44 % Inhibition CB2 [9] | Cerep SafetyScreen 44 % Inhibition Lck Kinase [10] | Cerep SafetyScreen 44 % Inhibition hERG [11] | Cerep SafetyScreen 44 % Inhibition Beta2 [12] | Cerep SafetyScreen 44 % Inhibition COX1 Enzyme [13] | Cerep SafetyScreen 44 % Inhibition GR [14] | Cerep SafetyScreen 44 % Inhibition N- neuronal a4b2 [15]
C=C1NC(=O)[C@H](Cc2c[nH]c3ccccc23)NC(=O)[C@H](NC(=O)[C@H](CCCCN)NC(=O)[C@@H](N)Cc2ccccc2)CSC[C@@H](C(=O)N[C@H]2C(=O)N3CCC[C@H]3C(=O)NCC(=O)N[C@H](C(=O)N[C@@H](C)C(=O)N[C@@H](CCCNC(=N)N)C(=O)N/C(=C\C)C(=O)NCC(=O)N[C@@H]3CSC[C@@H]4NC(=O)[C@H](Cc5ccc(O)cc5)NC(=O)[C@@H](CS/C=C\NC4=O)NC(=O)[C@H](CC(N)=O)NC(=O)[C@H](Cc4ccc(O)cc4)NC3=O)CS[C@H]2C)NC(=O)[C@H](CC(C)C)NC1=O [F17Y] | 54% | 9% | -7% | -5% | -5% | 12% | -9% | 10% | 1% | 9% | 9% | 4% | -23% | -3% | 0%
C=C1NC(=O)[C@H](Cc2c[nH]c3ccccc23)NC(=O)[C@H](NC(=O)[C@H](CCCCN)NC(=O)[C@@H](N)Cc2ccccc2)CSC[C@@H](C(=O)N[C@H]2C(=O)N3CCC[C@H]3C(=O)NCC(=O)N[C@H](C(=O)N[C@@H](C)C(=O)N[C@@H](CCCNC(=N)N)C(=O)N/C(=C\C)C(=O)NCC(=O)N[C@@H]3CSC[C@@H]4NC(=O)[C@H](Cc5ccc(O)cc5)NC(=O)[C@@H](CS/C=C\NC4=O)NC(=O)[C@H](CC(N)=O)NC(=O)[C@H](Cc4ccccc4)NC3=O)CS[C@H]2C)NC(=O)[C@H](C)NC1=O [L6A] | 14% | – | – | – | – | – | – | – | – | 12% | 7% | – | -15% | – | –
C=C1NC(=O)[C@H](Cc2c[nH]c3ccccc23)NC(=O)[C@H](NC(=O)[C@H](CCCCN)NC(=O)[C@@H](N)Cc2ccccc2)CSC[C@@H](C(=O)N[C@H]2C(=O)N3CCC[C@H]3C(=O)NCC(=O)N[C@H](C(=O)N[C@@H](C)C(=O)N[C@@H](C)C(=O)N/C(=C\C)C(=O)NCC(=O)N[C@@H]3CSC[C@@H]4NC(=O)[C@H](Cc5ccc(O)cc5)NC(=O)[C@@H](CS/C=C\NC4=O)NC(=O)[C@H](CC(N)=O)NC(=O)[C@H](Cc4ccccc4)NC3=O)CS[C@H]2C)NC(=O)[C@H](CC(C)C)NC1=O [R13A] | 9% | -4% | -5% | -29% | 3% | 3% | -3% | 1% | 5% | -3% | 16% | 2% | 18% | -11% | -6%
